US20110028453A1, “Treating Negative Symptoms of Schizophrenia Associated with Defective Neuregulin 1” (priority 2009, published 2011)

Tested on: ErbB4
Experiment: Western blot of ErbB4 level in brain compartments of desipramine-treated mice
Assay type: in vivo, mouse
Details: 20 mg/kg i.p. twice a day for four days
Text: Transmembrane (TM)-domain NRG1 heterozygous mutant mice (129S5-Nrg1tm1Lex, ID#011745-UCD) were obtained from Mutant Mouse Regional Resource Centers (MMRRC) and backcrossed with B6 mice. NRG1^+/− mice and their wild-type littermates were generated by in-house mating of male NRG1^+/− mice and female C57BL/6 mice. Heterozygous crossing has been practiced for at least 7 generations to obtain animals with a homogeneous C57BL/6 genetic background except for the TM-mutated nrg1 gene locus. Mouse genotypes were determined by PCR analysis. Animals were housed (five per cage) under a 12-hr light/dark cycle (lights on from 8:00 a.m. to 8:00 p.m.) at constant room temperature and relative humidity with food and water available ad libitum. All experiments were started at 10-week-old period at weight of 25-30 g.
Both wild-type and NRG1^+/− mice were injected intraperitoneally with freshly prepared desipramine hydrochloride (Sigma, St. Louis, Mo.) at 20 mg/kg, twice a day for four days, following the method described in Kozisek et al., Neuropharmacology 54:251-257; 2008). Control mice were injected with a saline vehicle. […] The supernatants were collected and analyzed by Western blotting to examine levels of ErbB4, following the method described in Example 1 above.

## CNCCCN1c2ccccc2CCc2ccccc21 [desipramine]
amygdala, P<0.01
  ErbB4 expression increase compared with control mice: 1.3±0.1 fold
Frontal cortex, P<0.05
  ErbB4 expression increase compared with control mice: 1.47±0.2 fold
